Experimental findings from ChEMBL document CHEMBL1155335, “Studies towards topical selective beta2-adrenoceptor agonists with a long duration of action” (Bioorg Med Chem Lett, 2009) are described below.

The source made the active and inactive calls. The calls are words filed in the database; no cut-off is given here.

Assay type in all cases: functional, organism-based
The test system of experiment [1] is Cavia porcellus. The experiment in a line: Bronchoprotective activity in guinea pig assessed as inhibition of acetylcholine-induced increase in pulmonary resistance at 1 ug/kg, intratracheally after 5 hrs.
Experiment [2] relates to Cavia porcellus. The experiment in a line: Bronchoprotective activity in intratracheally dosed guinea pig assessed as inhibition of acetylcholine-induced increase in pulmonary resistance at 0.3 ug/kg, intratracheally after 30 mins.
The subject of experiment [3] is Cavia porcellus. Briefly: Bronchoprotective activity in intratracheally dosed guinea pig assessed as inhibition of acetylcholine-induced increase in pulmonary resistance at 1 ug/kg, intratracheally after 150 mins.

Consider `COc1ccc(CC(C)NCC(O)c2ccc(O)c(NC=O)c2)cc1` (stereo not drawn), for which, in the experiment on Cavia porcellus [1], the result was Active. For the same compound, the result in the experiment with Cavia porcellus [2] and in the experiment on Cavia porcellus [3] was inactive.
